Test results as given in paper PMC3016896 (Journal of the American Chemical Society, 2010).

Chains of the proteins cited; added tags and fusions are not shown. Residues count along the entry.
UniProt P21836, 32-614 Y368A: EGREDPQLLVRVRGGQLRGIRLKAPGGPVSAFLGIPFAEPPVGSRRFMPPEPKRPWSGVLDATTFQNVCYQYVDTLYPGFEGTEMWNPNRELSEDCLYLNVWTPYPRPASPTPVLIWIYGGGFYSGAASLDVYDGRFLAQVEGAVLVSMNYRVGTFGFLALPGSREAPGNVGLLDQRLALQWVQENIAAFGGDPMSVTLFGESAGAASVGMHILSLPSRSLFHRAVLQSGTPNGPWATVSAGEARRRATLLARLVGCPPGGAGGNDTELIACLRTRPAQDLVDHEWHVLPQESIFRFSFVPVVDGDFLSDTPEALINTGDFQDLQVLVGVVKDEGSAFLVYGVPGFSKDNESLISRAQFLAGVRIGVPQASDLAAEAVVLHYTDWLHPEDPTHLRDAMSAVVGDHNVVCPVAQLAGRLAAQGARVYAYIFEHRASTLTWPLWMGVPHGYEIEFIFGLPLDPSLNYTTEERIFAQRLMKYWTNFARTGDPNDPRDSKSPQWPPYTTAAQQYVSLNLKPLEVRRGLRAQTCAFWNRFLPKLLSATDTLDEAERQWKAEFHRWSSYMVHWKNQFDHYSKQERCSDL

Target: mAChE mutant Tyr337Ala (Mus musculus, UniProt P21836, Y368A)
Details: for lower dissociation rate for Tyr337Ala compared with T. californica AChE: Tyr337Ala vs T. californica AChE (Phe for Tyr337); for lower dissociation rate for Tyr337Ala compared to mAChE: Tyr337Ala vs mAChE

Row | SMILES | lower dissociation rate for Tyr337Ala compared with T. californica AChE [fold] | lower dissociation rate for Tyr337Ala compared to mAChE [fold] | greater affinity of the syn1 isomer compared with the anti1 isomer (Tyr337Ala mutant, syn1 vs anti1) [fold]
1 | Nc1ccc2c(c1)c(-c1ccccc1)[n+](CCCCCCc1cn(CCNc3c4c(nc5ccccc35)CCCC4)nn1)c1cc(N)ccc21 [anti1, 3,8-diamino-6-phenyl-5-[6-[1-[2-[(1,2,3,4-tetrahydro-9-acridinyl)amino]ethyl]-1H-1,2,3-triazol-4anti-yl]hexyl]-phenanthridinium] | 350 | 3000 | 
2 | Nc1ccc2c(c1)c(-c1ccccc1)[n+](CCCCCCc1cnnn1CCNc1c3c(nc4ccccc14)CCCC3)c1cc(N)ccc21 [syn1, 3,8-diamino-6-phenyl-5-[6-[1-[2-[(1,2,3,4-tetrahydro-9-acridinyl)amino]ethyl]-1H-1,2,3-triazol-5syn-yl]hexyl]-phenanthridinium] | 85 | 550 | 4
